Antibody variant affinities, Ab-14 heavy chain, assay 1

Reference: Engelhart et al. 2022, doi:10.1038/s41597-022-01779-4. File: FLAb, binding data.

Binding partner: SARS-CoV-2 spike HR2 peptide, sequence PDVDLGDISGINAS.

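The parent was found by panning a naive human phage display library on the peptide. AAYL49 was designed without a model: most single CDR substitutions and a random sample of double and triple ones. The assay is AlphaSeq: two haploid yeast populations carry antibody and antigen on their surface. After mating in shaken culture at 30 °C for 16 h, diploids were selected and their barcode pairs sequenced. Each replicate has its own calibration line, from reference interactions of the BCL2 family. Each pool was mated in three replicate cultures.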

Parent: Ab-14, a human scFv built as VH, three GGGGS repeats, VL. Only the CDRs of the heavy chain vary.
VH: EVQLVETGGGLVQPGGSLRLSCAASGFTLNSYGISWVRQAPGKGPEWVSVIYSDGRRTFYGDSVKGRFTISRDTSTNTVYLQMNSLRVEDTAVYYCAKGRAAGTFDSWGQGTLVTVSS
VL: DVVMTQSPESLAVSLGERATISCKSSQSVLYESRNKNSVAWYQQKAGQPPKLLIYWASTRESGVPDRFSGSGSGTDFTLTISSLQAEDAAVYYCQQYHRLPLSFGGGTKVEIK

Each variant is given by its three heavy chain CDRs, as the data file delimits them; those of the parent are GFTLNSYGIS, VIYSDGRRTFYGDSVK, GRAAGTFDS.
This list gathers variants with a substitution at A101 (VH, numbered from residue 1).
The read-out is the apparent dissociation constant on a log10 scale (nM): the lower, the stronger.
Replicates are averaged; those with no signal do not enter the mean.
"nd" marks a missing value. The strain was present, yet no cells mated with the target were sequenced in that replicate, which points to weak or no binding.
Parent in this assay: reference entry 0.65, copy in this library 4.11 (one replicate of three).

The variant GFTLNSHGIS / VIYSDWRRTFYGDSVK / GRSAGTFDS showed nd, nd, nd (controls 1 of 9). With GFTLNSYGIS / VIYGDGRRTFYGDSVK / GRRAGTFDS the result was 2.50, 2.57, 2.91 (mean 2.66; controls 1 of 9). The variant GFTLNSYGIS / VIYSDGRRTFYGDLVK / GRNAGTFDI gave 1.62, 1.42, 1.47 (mean 1.51; controls 2 of 9). For GFTLNSYGIS / VIYSDGRRTFYGDSEK / GRGAGDFDS, the assay gave 6.12, nd, nd (controls 1 of 9). For LFTLNSYGIS / VIYSDGRRTFYGDSVK / GRQAKTFDS, the assay gave 3.80, 2.63, 3.20 (mean 3.21; controls 4 of 9). For GTTLNSYGIS / VIYSDGRRTFYGDSVK / GRFSGTFDS, the assay gave nd, 4.19, 3.86 (mean 4.03; controls 2 of 9). With GFTYNSYGIS / VIYSDGRRTFYGDSVK / GRVAGTFDS the result was nd, nd, nd (controls 0 of 9). The variant GFTLNSYGIQ / VIYSDGRRTFYGMSVK / GRTAGTFDS gave nd, nd, nd (controls 0 of 9).

With GFTLNSYGYS / IIYSDGRRTFYGDSVK / GRLAGTFDS the result was nd, 4.47, nd (controls 1 of 9). The variant GFRQNSYGIS / VIYSDGRRTFYGDSVK / GRIAGTFDS showed 2.91, 2.37, 3.28 (mean 2.85; controls 2 of 9). The variant GFTLNSYGIS / VIYSDGRRTPYGRSVK / GRNAGTFDS showed nd, nd, nd (controls 0 of 9). The variant GFTLNSYGIS / VIYSDGRRTFYGDSVK / GRRAGTFDS gave nd, nd, nd (controls 0 of 9). For GFTLNSYGIS / VIYSDGRRTFYGDSVK / QRSAGTDDS, the assay gave nd, nd, nd (controls 2 of 9). For GFTLNSYGIS / VIYSDGRRTFYGTSCK / GRLAGTFDS, the assay gave 3.49, 2.35, 3.19 (mean 3.01; controls 2 of 9). The variant GFTLNSYGIS / VCYSDGRRTFYGDSVK / GRHAGTFRS showed nd, nd, nd (controls 0 of 9). For GPTLNSYGIS / VIYSDGRRLFYGDSVK / GRGAGTFDS, the assay gave nd, nd, nd (controls 0 of 9).

The variant GFTLISYGIS / VIYSDGRRTFEGDSVK / GRTAGTFDS showed nd, nd, nd (controls 0 of 9). With GFTLNSYGIS / VIYSDGRRTFYGDMVK / GRMAGVFDS the result was 1.28, 1.12, 1.01 (mean 1.13; controls 1 of 9). With GFTLNSYGIS / VRYSDGRRTFYGDSVK / GRQCGTFDS the result was 4.23, nd, 4.34 (mean 4.29; controls 3 of 9). With GFTLNSYGIS / VIYSDGRITFYGDSVK / GRTAGTFDS the result was nd, nd, nd (controls 0 of 9). The variant GRDLNSYGIS / VIYSDGRRTFYGDSVK / GRLAGTFDS gave 0.41, 0.64, 0.58 (mean 0.54; controls 3 of 9). With GFTLNSYGIR / VIYSDGRRTFYGCSVK / GRMAGTFDS the result was nd, nd, nd (controls 0 of 9). With GFTLNSYGIS / VIYSDGQRTFYGDSVK / GRPAGHFDS the result was 1.86, 1.71, 1.84 (mean 1.80; controls 1 of 9). The variant GFTLNSYGIS / VIYSDGRRYFYGDSHK / GRQAGTFDS gave nd, nd, 5.56 (controls 1 of 9).

The variant GFTLNSYTIS / VIYSDGRRTFYGDSVK / GRIAGTFDS gave nd, 2.82, nd (controls 3 of 9). The variant TFTLNSYGIS / VIYDDGRRTFYGDSVK / GRVAGTFDS showed nd, nd, nd (controls 1 of 9). For GFTLNSYGIS / VIYSDGRRFFYGDLVK / GRSAGTFDS, the assay gave nd, nd, nd (controls 0 of 9). The variant GFTLNSYGIS / VIYSNGRRTFYGDSVK / GHCAGTFDS showed nd, nd, nd (controls 1 of 9). The variant GFTLNSYGIS / YIYSDGRRTFYGDSVK / GRVALTFDS showed nd, nd, nd (controls 1 of 9). For GFTLNSYGIS / VIYSDGRRTFYGDSVK / GVHAGTYDS, the assay gave 2.70, 2.00, 2.60 (mean 2.43; controls 1 of 9). For GFTLNSYGIS / VIYSDGRRRFYGDSVI / GRNAGTFDS, the assay gave 3.26, 2.40, nd (mean 2.83; controls 1 of 9). For GFGLNSYDIS / VIYSDGRRTFYGDSVK / GRWAGTFDS, the assay gave nd, nd, nd (controls 0 of 9).

The variant GFTLNSYGIS / VYYSDGRRTFYGDSVK / GHSAGTFDS showed 4.60, 3.77, 4.56 (mean 4.31; controls 5 of 9). With GFTLNSYGIS / VIYSDGRRYFYGDSVK / TRCAGTFDS the result was nd, 4.36, nd (controls 1 of 9). The variant GFTWSSYGIS / VIYSDGRRTFYGDSVK / GRMAGTFDS showed 3.10, 3.50, nd (mean 3.30; controls 0 of 9). The variant GFTLNSYGIS / VIYLDGRRTFYGDSVK / GRNAWTFDS showed nd, nd, nd (controls 2 of 9). For GFTLNSYGIS / VIYSDGRHTFYGDSVK / GRWAGTFDS, the assay gave 2.08, 2.26, 2.65 (mean 2.33; controls 2 of 9). The variant GFTLNSYGIS / VIYSDGRWTFYGDSVK / GRYVGTFDS showed nd, nd, 3.87 (controls 5 of 9). The variant GFTLNSYGIS / VIYSIGRRTFKGDSVK / GRWAGTFDS gave nd, nd, nd (controls 0 of 9). With GFTLNSYGIS / VIYSDGRATFYGDSVK / GRDAGTFDF the result was 5.01, nd, nd (controls 1 of 9).

With GFTLNSYGIS / VIYSDGRRTFYGDRVK / GVCAGTFDS the result was 1.27, 1.35, 1.28 (mean 1.30; controls 0 of 9). For GFTLNSYGIS / VIYSDGRRTFYGDSVK / GRIAGTFDS, the assay gave 0.67, 0.97, 0.72 (mean 0.79; controls 0 of 9). For GFTLNSDGIS / VIYSDGMRTFYGDSVK / GRLAGTFDS, the assay gave 5.46, nd, nd (controls 2 of 9). For GFTLNSYGIS / VIYSDGRRTFYGKSVP / GRWAGTFDS, the assay gave 5.17, 3.69, 5.50 (mean 4.79; controls 7 of 9).

The first 6 variants above that were never detected:

With GFTLNSHGIS / VIYSDWRRTFYGDSVK / GRSAGTFDS the result was nd, nd, nd (controls 1 of 9).
With GFTYNSYGIS / VIYSDGRRTFYGDSVK / GRVAGTFDS the result was nd, nd, nd (controls 0 of 9).
With GFTLNSYGIQ / VIYSDGRRTFYGMSVK / GRTAGTFDS the result was nd, nd, nd (controls 0 of 9).
With GFTLNSYGIS / VIYSDGRRTPYGRSVK / GRNAGTFDS the result was nd, nd, nd (controls 0 of 9).
With GFTLNSYGIS / VIYSDGRRTFYGDSVK / GRRAGTFDS the result was nd, nd, nd (controls 0 of 9).
With GFTLNSYGIS / VIYSDGRRTFYGDSVK / QRSAGTDDS the result was nd, nd, nd (controls 2 of 9).

Background: pairings of library AAYL49 with three empty control strains gave a value in 15% of cases (median 4.06, 5th percentile 2.83). Values in that range, when seen in few replicates, are hard to tell from nonspecific mating. Also given: how often the same scFv was detected with the empty control strains.